Type in all cases: binding
In assay [1] the target is T1, CYSLTR1 (Homo sapiens, UniProt Q9Y271).
T1 construct: purchased Promega (in-house HiBiT-GPCR construct library, NanoBRET)
T1 sequence (Q9Y271 1-337): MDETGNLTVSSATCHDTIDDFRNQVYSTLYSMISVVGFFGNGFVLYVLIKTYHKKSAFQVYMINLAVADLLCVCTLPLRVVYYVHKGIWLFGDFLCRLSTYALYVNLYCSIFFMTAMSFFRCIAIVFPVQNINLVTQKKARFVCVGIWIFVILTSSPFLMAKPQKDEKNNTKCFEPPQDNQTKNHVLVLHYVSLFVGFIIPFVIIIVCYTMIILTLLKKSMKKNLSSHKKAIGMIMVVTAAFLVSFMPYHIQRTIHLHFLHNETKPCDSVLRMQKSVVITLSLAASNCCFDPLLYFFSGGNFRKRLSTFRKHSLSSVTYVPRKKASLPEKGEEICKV
In words: NanoBRET screen HiBiT-CYSLTR1 in HEK293. The method, then:
(§1) Each tracer candidate was screened across the entire library of HiBiT-GPCR constructs using NanoBRET as the detection modality. As depicted in Figure 4A, the specificity of interactions was evaluated through decrease in BRET due to competitive displacement of a bound tracer by excess parental compound. Each tracer was analyzed for binding to each HiBiT-GPCR fusion in the absence and in the presence of competing parental compound. Briefly, HEK293 cells were transfected with HiBiT-GPCR constructs diluted into promoterless DNA to reduce expression and maximize translocation to the cell surface. Each tracer candidate was then screened at concentrations of 1 μM and 0.1 μM across cells expressing these fusions. Cells were treated for 1.5 h with tracer either alone or in the presence of 20 μM competing parental compound (i.e., control). BRET was measured upon addition of purified LgBiT and subsequent complementation with HiBiT genetically fused to a GPCR. The specificity of interactions was assessed through a decrease in BRET signal due to competitive displacement of the bound tracer. To further gauge the robustness of these interactions, the fold response over the control (i.e., BRETtracer/BRETcontrol) was calculated. We chose a 1.5-fold response, which translates to ≥7-fold signal over noise as the minimal threshold required to score an interaction as positive. […]. […]

By UniProt entry, the sequences of proteins in these tests, tags left out. Where a name states a change or a piece, a line headed by the entry shows the natural chain unless it says otherwise.
UniProt P33032: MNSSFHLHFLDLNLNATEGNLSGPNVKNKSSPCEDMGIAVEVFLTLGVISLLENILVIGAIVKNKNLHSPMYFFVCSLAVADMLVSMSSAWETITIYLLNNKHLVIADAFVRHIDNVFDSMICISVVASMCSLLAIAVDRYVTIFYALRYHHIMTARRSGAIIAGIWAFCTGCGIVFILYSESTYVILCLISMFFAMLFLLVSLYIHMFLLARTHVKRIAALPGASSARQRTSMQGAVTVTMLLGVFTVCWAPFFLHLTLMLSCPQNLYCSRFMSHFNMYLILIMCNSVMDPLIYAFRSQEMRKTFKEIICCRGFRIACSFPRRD
UniProt P08912, whole entry: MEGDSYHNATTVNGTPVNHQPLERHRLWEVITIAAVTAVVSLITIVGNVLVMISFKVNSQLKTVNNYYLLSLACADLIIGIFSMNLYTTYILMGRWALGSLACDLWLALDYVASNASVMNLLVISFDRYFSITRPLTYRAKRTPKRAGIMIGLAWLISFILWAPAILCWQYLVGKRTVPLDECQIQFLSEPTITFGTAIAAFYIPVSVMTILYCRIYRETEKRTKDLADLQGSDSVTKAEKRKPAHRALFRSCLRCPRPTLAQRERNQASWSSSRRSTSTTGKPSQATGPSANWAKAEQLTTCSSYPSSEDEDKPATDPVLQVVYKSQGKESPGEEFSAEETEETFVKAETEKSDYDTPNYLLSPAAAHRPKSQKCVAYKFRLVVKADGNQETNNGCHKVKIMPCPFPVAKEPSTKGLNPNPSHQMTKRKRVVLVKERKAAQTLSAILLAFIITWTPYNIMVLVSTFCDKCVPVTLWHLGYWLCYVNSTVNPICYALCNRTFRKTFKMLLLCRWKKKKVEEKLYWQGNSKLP
UniProt Q9GZQ6: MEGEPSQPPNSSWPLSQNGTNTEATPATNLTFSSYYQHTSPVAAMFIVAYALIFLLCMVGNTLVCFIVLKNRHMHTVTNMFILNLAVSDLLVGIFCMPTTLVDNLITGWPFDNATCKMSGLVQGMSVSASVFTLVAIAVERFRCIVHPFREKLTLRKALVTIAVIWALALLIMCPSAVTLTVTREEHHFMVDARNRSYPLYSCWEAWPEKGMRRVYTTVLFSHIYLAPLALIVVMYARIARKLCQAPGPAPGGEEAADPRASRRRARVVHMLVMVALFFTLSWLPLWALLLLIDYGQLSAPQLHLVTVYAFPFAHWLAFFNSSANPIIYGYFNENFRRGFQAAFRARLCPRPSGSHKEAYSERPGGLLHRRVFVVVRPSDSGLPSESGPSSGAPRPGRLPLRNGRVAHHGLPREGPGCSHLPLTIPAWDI
UniProt P25100, whole entry: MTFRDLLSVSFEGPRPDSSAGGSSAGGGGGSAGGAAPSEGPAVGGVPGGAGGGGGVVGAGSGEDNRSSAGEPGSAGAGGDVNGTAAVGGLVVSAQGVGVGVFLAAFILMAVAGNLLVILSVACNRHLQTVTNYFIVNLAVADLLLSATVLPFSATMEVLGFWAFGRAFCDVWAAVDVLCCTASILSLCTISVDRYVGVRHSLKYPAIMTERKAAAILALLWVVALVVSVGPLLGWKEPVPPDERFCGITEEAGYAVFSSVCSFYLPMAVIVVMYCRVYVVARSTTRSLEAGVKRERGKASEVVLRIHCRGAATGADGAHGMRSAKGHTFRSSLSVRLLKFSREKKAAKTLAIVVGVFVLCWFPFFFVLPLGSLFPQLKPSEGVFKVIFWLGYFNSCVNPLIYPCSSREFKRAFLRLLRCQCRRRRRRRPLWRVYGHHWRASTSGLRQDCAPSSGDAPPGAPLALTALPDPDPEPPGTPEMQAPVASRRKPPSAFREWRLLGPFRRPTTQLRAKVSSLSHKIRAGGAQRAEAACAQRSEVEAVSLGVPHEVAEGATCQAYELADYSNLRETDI
UniProt P25103, whole entry: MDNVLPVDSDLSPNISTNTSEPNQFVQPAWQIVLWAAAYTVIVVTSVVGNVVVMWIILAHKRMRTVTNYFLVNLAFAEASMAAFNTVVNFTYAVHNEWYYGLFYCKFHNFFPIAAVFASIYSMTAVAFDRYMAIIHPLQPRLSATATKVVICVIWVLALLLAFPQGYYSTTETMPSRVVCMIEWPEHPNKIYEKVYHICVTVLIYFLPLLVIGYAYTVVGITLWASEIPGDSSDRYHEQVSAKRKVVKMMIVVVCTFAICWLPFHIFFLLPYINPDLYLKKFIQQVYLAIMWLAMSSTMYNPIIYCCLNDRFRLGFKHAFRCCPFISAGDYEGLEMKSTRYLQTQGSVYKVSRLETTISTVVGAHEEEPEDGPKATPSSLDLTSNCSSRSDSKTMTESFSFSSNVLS

Assay [2] concerns the target T2, MC5R (Homo sapiens, UniProt P33032).
T2 construct: purchased Promega (in-house HiBiT-GPCR construct library, NanoBRET)
Description: NanoBRET screen HiBiT-MC5R in HEK293. The method, then: (§2) Each tracer candidate was screened across the entire library of HiBiT-GPCR constructs using NanoBRET as the detection modality. As depicted in Figure 4A, the specificity of interactions was evaluated through decrease in BRET due to competitive displacement of a bound tracer by excess parental compound. Each tracer was analyzed for binding to each HiBiT-GPCR fusion in the absence and in the presence of competing parental compound. Briefly, HEK293 cells were transfected with HiBiT-GPCR constructs diluted into promoterless DNA to reduce expression and maximize translocation to the cell surface. Each tracer candidate was then screened at concentrations of 1 μM and 0.1 μM across cells expressing these fusions. Cells were treated for 1.5 h with tracer either alone or in the presence of 20 μM competing parental compound (i.e., control). BRET was measured upon addition of purified LgBiT and subsequent complementation with HiBiT genetically fused to a GPCR. The specificity of interactions was assessed through a decrease in BRET signal due to competitive displacement of the bound tracer. To further gauge the robustness of these interactions, the fold response over the control (i.e., BRETtracer/BRETcontrol) was calculated. We chose a 1.5-fold response, which translates to ≥7-fold signal over noise as the minimal threshold required to score an interaction as positive. […]. Below we highlight the screening results obtained for our exemplary fluorescent tracers based on Clozapine, Amitriptyline and AZD1283.
(§3) HiBiT-GPCR DNA constructs were diluted in 10 mM Tris pH 8 to a final concentration of 0.01 μg/μL, arrayed in 96-well plates and stored at −20 °C. For transfection, HEK293 cells were suspended in Opti-MEM (without phenol red) supplemented with 2% fetal bovine serum (Seradigm) and 100 units/mL penicillin–streptomycin (Gibco) at a final concentration of 220,000 cells/mL and dispensed into white 96-well plates at 90 μL/well. Subsequent transfections and screens were carried using an Agilent Bravo Automated Liquid Handling Platform. First, the 96-well HiBiT DNA arrays were diluted 25-fold in Opti-MEM (without serum or phenol red) to a final concentration of 0.0004 μg/μL and 20 μL of the diluted DNAs were transferred into new 96-well plates. Next, promoterless carrier DNA (1 μg/μL) was diluted 25-fold (0.04 μg/μL) and then dispensed into the diluted arrays at 20 μL/well. Following brief mixing, Viafect transfection reagent (Promega) diluted 16-fold into Opti-MEM was dispensed into the plates at 40 μL/well. After mixing by pipetting, plates were incubated for 10 min on the pipetting station deck. The DNA-transfection reagent complexes were then added to plates containing cells. To facilitate the screen, 10 μL of DNA-transfection reagent complexes were added in duplicates to the top 4 and bottom 4 rows, resulting in two identical 48-well arrays per plate. Plates with transfected cells were incubated for 18–20 h at 37 °C/5% CO2. A screen of each tracer across the entire library using two different concentrations requires duplicate plates of transfected cells. Depending on the number of tracers being screened, transfections can be scaled up using the same ratios. The next day, for each tracer, four 20× screening solutions in tracer dilution buffer (Promega) were prepared: two duplicates at final concentration of 20 μM and two duplicates at a final concentration of 2 μM. A competing unmodified compound was added to one of each duplicate at a final concentration of 400 μM. […]

The target in assay [3] is T3, FZD10 (Homo sapiens, UniProt Q9ULW2).
T3 construct: purchased Promega (in-house HiBiT-GPCR construct library, NanoBRET)
T3 sequence (Q9ULW2 21-581): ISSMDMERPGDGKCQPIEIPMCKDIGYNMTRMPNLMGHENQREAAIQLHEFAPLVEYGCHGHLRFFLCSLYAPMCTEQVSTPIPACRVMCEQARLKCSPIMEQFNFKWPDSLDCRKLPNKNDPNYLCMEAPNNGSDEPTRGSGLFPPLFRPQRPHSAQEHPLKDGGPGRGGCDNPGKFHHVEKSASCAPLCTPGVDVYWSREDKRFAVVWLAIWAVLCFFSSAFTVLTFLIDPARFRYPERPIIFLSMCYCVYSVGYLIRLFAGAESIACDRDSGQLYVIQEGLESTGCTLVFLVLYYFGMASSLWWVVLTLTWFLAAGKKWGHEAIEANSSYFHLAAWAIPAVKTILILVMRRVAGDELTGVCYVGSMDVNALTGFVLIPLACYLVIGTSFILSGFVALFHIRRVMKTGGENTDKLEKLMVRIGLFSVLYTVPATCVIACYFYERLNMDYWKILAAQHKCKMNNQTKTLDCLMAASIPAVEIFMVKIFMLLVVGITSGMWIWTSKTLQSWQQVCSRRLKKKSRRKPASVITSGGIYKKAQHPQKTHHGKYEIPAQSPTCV
Description: NanoBRET screen HiBiT-FZD10 in HEK293. Particulars: 1μM tracer. The method, then: as §1

In assay [4] the target is T4, CHRM5 (Homo sapiens, UniProt P08912).
T4 construct: purchased Promega (in-house HiBiT-GPCR construct library, NanoBRET)
In words: NanoBRET screen HiBiT-CHRM5 in HEK293. The settings on record: CHRM5; 1μM tracer. The method, then:
as §1

The target in assay [5] is T5, NPFFR1 (Homo sapiens, UniProt Q9GZQ6).
T5 construct: purchased Promega (in-house HiBiT-GPCR construct library, NanoBRET)
In words: NanoBRET screen HiBiT-NPFFR1 in HEK293. The method, then:
as §2, §3

Assay [6] deals with T6, ADRA1D (Homo sapiens, UniProt P25100).
T6 construct: purchased Promega (in-house HiBiT-GPCR construct library, NanoBRET)
Description: NanoBRET screen HiBiT-ADRA1D in HEK293. The method, then:
Each tracer candidate was screened across the entire library of HiBiT-GPCR constructs using NanoBRET as the detection modality. As depicted in Figure 4A, the specificity of interactions was evaluated through decrease in BRET due to competitive displacement of a bound tracer by excess parental compound. Each tracer was analyzed for binding to each HiBiT-GPCR fusion in the absence and in the presence of competing parental compound. Briefly, HEK293 cells were transfected with HiBiT-GPCR constructs diluted into promoterless DNA to reduce expression and maximize translocation to the cell surface. Each tracer candidate was then screened at concentrations of 1 μM and 0.1 μM across cells expressing these fusions. Cells were treated for 1.5 h with tracer either alone or in the presence of 20 μM competing parental compound (i.e., control). BRET was measured upon addition of purified LgBiT and subsequent complementation with HiBiT genetically fused to a GPCR. The specificity of interactions was assessed through a decrease in BRET signal due to competitive displacement of the bound tracer. To further gauge the robustness of these interactions, the fold response over the control (i.e., BRETtracer/BRETcontrol) was calculated. We chose a 1.5-fold response, which translates to ≥7-fold signal over noise as the minimal threshold required to score an interaction as positive.
HiBiT-GPCR DNA constructs were diluted in 10 mM Tris pH 8 to a final concentration of 0.01 μg/μL, arrayed in 96-well plates and stored at −20 °C. For transfection, HEK293 cells were suspended in Opti-MEM (without phenol red) supplemented with 2% fetal bovine serum (Seradigm) and 100 units/mL penicillin–streptomycin (Gibco) at a final concentration of 220,000 cells/mL and dispensed into white 96-well plates at 90 μL/well. Subsequent transfections and screens were carried using an Agilent Bravo Automated Liquid Handling Platform. […]

In assay [7] the target is T7, TACR1 (Homo sapiens, UniProt P25103).
T7 construct: purchased Promega (in-house HiBiT-GPCR construct library, NanoBRET)
Description: NanoBRET screen HiBiT-TACR1 in HEK293. The method, then: as §1

Molecules are shown by their SMILES.

Take `O=C(CCc1ccc2n1[B-](F)(F)[N+]1=C(c3ccc[nH]3)C=CC1=C2)NCc1ccc(C(=O)NCCOCCOCCNCC(O)COc2cccc3ccccc23)cc1` (centres unmarked) [Propranolol-3-NB590]: in assay [1] (1μM), the “NanoBRET Fold Response” value came to 1.03. For the molecule `CCOC(=O)c1cc(C#N)c(N2CCC(C(=O)NS(=O)(=O)Cc3ccccc3/C=C/C(=O)NCCNC(=O)CCc3ccc4n3[B-](F)(F)[N+]3=C(c5ccc[nH]5)C=CC3=C4)CC2)nc1C` [AZD1283-1-NB590], the “NanoBRET Fold Response” value in assay [2] (0.1μM) was determined as 1.03. For `O=C(CCOCCOCCOCCOCCNC(=O)CCc1ccc2n1[B-](F)(F)[N+]1=C(c3ccc[nH]3)C=CC1=C2)NCCCN1CCN(C2=Nc3ccccc3Oc3ccc(Cl)cc32)CC1` [Loxapine-a-2-NB590], the “NanoBRET Fold Response” value in assay [2] (tracer 1μM) is listed as 1.03. On to `CN1CCN(C2=Nc3cc(Cl)ccc3N(CC(=O)NCCOCCOCCOCCOCCNC(=O)CCc3ccc4n3[B-](F)(F)[N+]3=C(c5ccc[nH]5)C=CC3=C4)c3ccccc32)CC1` [Clozapine-c-2-NB590], for which the “NanoBRET Fold Response” value in assay [3] came out at 1.03. For `CN1CCN(C2=Nc3cc(Cl)ccc3Nc3ccc(CNC(=O)CCOCCOCCOCCOCCNC(=O)CCc4ccc5n4[B-](F)(F)[N+]4=C(c6ccc[nH]6)C=CC4=C5)cc32)CC1` [Clozapine-b-2-NB590], the “NanoBRET Fold Response” value in assay [4] came out at 1.04. Take `O=C(CCOCCOCCOCCOCCNC(=O)CCc1ccc2n1[B-](F)(F)[N+]1=C(c3ccc[nH]3)C=CC1=C2)NCCCN1CCN(C2=Nc3cc(Cl)ccc3Nc3ccccc32)CC1` [Clozapine-a-2-NB590]: the “NanoBRET Fold Response” value amounted to 1.03 in assay [2] (1μM tracer) and 1.03 in assay [5] (NPFFR1, 0.1μM tracer). Turning to `N#CN=C(NCCCOc1cccc(CN2CCCCC2)c1)NCCNC(=O)CCOCCOCCOCCOCCNC(=O)CCc1ccc2n1[B-](F)(F)[N+]1=C(c3ccc[nH]3)C=CC1=C2` [Aminopotentidine-2-NB590], in assay [6] (tracer 1μM), the “NanoBRET Fold Response” value was 1.03.

Turning to `COc1ccc2[nH]c(-c3ccc(CNC(=O)CCOCCOCCOCCOCCNC(=O)CCc4ccc5n4[B-](F)(F)[N+]4=C(c6ccc[nH]6)C=CC4=C5)cc3)c(CCNC(C)=O)c2n1` [AzomelatoninICO9-2-NB590], the “NanoBRET Fold Response” value in assay [5] (0.1μM tracer) is on record as 1.03.

`COc1ccccc1N1CCN(CCCCN2C(=O)c3ccc(CNC(=O)CCOCCNC(=O)c4ccc(CNC(=O)CCc5ccc6n5[B-](F)(F)[N+]5=C(c7ccc[nH]7)C=CC5=C6)cc4)cc3C2=O)CC1` [NAN-190-3-NB590]: in assay [6] (tracer 0.1μM), the “NanoBRET Fold Response” value amounted to 1.03. As to `CN(C)CCC=C1c2ccccc2CCc2ccc(C(=O)NCCNC(=O)CCOCCOCCOCCOCCNC(=O)CCc3ccc4n3[B-](F)(F)[N+]3=C(c5ccc[nH]5)C=CC3=C4)cc21` [Amitriptyline-b-2-NB590], the “NanoBRET Fold Response” value in assay [5] (tracer at 1μM) is listed as 1.03.

As to `CCCn1c(=O)c2[nH]c(-c3ccc(OCC(=O)NCCNC(=O)CCOCCNC(=O)c4ccc(CNC(=O)CCc5ccc6n5[B-](F)(F)[N+]5=C(c7ccc[nH]7)C=CC5=C6)cc4)cc3)nc2n(CCC)c1=O` [XAC-3-NB590], the “NanoBRET Fold Response” value in assay [7] (tracer 0.1μM), in assay [7] (tracer 1μM) and in assay [1] (tracer 0.1μM) was 1.03 in each case.

These data come from paper PMC8151276, “An Integrated Approach toward NanoBRET Tracers for Analysis of GPCR Ligand Engagement” (Molecules, 2021).
